The results in this text go back to paper PMC6271384, “Synthesis, Cytotoxicity and Mechanistic Evaluation of 4-Oxoquinoline-3-carboxamide Derivatives: Finding New Potential Anticancer Drugs” (Molecules, 2014).

The chains behind the UniProt entries cited, without tags or fusion partners. Where a name states a change or a piece, a line headed by the entry shows the natural chain unless it says otherwise.
UniProt P11388: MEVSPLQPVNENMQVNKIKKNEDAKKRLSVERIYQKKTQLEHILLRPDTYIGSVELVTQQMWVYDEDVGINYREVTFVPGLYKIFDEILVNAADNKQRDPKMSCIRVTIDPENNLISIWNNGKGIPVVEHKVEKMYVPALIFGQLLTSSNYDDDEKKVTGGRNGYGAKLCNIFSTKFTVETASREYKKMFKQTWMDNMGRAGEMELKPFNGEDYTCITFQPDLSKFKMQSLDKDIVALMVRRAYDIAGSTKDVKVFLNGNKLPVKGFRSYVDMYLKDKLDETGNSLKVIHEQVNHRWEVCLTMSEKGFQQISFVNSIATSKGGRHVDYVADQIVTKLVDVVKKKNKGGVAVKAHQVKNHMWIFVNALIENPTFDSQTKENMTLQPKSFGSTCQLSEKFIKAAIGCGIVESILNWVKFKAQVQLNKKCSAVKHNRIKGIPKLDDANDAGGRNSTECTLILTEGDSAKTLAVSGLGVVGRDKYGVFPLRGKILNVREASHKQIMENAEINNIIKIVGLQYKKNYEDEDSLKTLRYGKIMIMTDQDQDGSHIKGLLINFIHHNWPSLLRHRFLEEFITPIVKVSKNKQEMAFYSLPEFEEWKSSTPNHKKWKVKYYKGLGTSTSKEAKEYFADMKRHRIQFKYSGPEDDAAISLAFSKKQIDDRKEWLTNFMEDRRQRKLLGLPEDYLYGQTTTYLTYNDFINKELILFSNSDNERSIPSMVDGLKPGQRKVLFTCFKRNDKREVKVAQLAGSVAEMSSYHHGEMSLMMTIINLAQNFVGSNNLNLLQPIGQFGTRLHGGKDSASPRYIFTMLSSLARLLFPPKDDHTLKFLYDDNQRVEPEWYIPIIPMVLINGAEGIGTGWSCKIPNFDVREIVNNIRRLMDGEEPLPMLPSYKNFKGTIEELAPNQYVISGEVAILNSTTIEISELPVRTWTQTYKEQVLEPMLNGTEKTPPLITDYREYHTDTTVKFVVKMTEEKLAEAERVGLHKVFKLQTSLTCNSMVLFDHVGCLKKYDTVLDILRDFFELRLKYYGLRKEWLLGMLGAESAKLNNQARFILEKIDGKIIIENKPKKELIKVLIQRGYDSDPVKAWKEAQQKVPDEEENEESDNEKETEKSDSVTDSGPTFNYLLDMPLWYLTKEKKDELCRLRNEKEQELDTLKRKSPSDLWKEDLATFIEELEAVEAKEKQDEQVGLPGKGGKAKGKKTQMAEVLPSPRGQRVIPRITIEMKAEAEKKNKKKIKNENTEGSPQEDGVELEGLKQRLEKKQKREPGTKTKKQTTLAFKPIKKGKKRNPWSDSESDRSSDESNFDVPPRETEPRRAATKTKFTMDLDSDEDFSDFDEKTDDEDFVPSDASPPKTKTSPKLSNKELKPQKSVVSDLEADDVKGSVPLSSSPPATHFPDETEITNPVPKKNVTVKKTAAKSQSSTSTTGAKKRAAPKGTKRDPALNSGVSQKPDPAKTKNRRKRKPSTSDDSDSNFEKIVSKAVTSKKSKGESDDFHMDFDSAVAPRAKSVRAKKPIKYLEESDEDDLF

The experiment deals with T1, Human topoisomerase IIα (TopoIIα) (Homo sapiens, UniProt P11388).
T1 construct: purchased TopoGEN, Inc. (Columbus, OH, USA)
As to the kind of experiment: DNA relaxation assay (Topoisomerase II Drug Screening Kit). To be noted: 100 µM compound, 10 U enzyme, 37 °C, 30 min, agarose gel. The experiment is classed as biochemical. How it is done:
Human topoisomerase IIα (TopoIIα) was obtained from TopoGEN, Inc. (Columbus, OH, USA). Proteinase K from Tritirachium album was obtained from Sigma-Aldrich, Inc. (St. Louis, MO, USA) and was dissolved in DNase free water. A TAE gel electrophoresis buffer was used in this assay.
The inhibitory effects of the derivatives on human TopoIIα were measured using a Eukaryotic Topoisomerase II Drug Screening Kit (TopoGEN, Inc.). All derivatives were dissolved in DMSO immediately prior to testing.
The substances were tested at a fixed concentration of 0.1 mM. This assay concentration was chosen based on the effective concentration of the VP-16 (etoposide) standard (0.1 mM), as recommended by the kit manufacturer (TopoGen). […] There was no interference in enzyme function with concentrations from 0%–5% DMSO. Supercoiled plasmid DNA (pRYG, 200 ng) was incubated with human TopoIIα (10 U) at 37 °C for 30 min in relaxation buffers in the absence or presence of derivatives (final volume is 20 μL). The order of reagent addition was buffer, test derivative, Topo IIα and finally DNA.
The assay samples were analyzed by electrophoresis on a 1% agarose gel without EtdBr (25 V, 18 h, room temperature) in TAE buffer, followed by staining in 0.5 μg/mL of EtdBr to allow for observation of the DNA bands under UV light.

`COc1cc([C@@H]2c3cc4c(cc3[C@@H](O[C@@H]3O[C@@H]5CO[C@@H](C)O[C@H]5[C@H](O)[C@H]3O)[C@H]3COC(=O)[C@H]23)OCO4)cc(OC)c1O` [VP-16, etoposide, reference compound]: the “inhibition of supercoiled DNA (pRYG) relaxation by topoisomerase II” value was “only the SC band is observed, which indicates topoisomerase inhibition”.
